The numbers were not newly measured in patent publication US20240342285A1, “TREATMENT OF CANCER PATIENTS WITH TUMOR INFILTRATING LYMPHOCYTE THERAPIES IN COMBINATION WITH KRAS INHIBITORS” (Iovance Biotherapeutics, Inc., priority 2021, published 2024), which cites them from elsewhere.

For the series the following is noted: 1 mg vial, lot 10200121 (Cellgenix), per COA.

For “rhIL-2: purified, lyophilized recombinant human interleukin-2”, the specific activity was 25×10^6 IU/mg.
